Source: PMC6021681, “Characterization of the Anti-Hepatitis C Virus Activity of New Nonpeptidic Small-Molecule Cyclophilin Inhibitors with the Potential for Broad Anti-Flaviviridae Activity” (Antimicrobial Agents and Chemotherapy, 2018)

System: genotype 1b HCV-SGR
Type: cell-based, hepatitis C virus
Conditions: EC50 relative to wild type
Description: Candidate resistance-associated substitutions (RASs) were introduced into a wild-type genotype 1b HCV-SGR containing the luciferase reporter gene by means of site-directed mutagenesis (QuikChange II XL site-directed mutagenesis kit; Agilent Technologies, Santa Clara, CA, USA). Ninety-six hours after RNA transfection, the susceptibility of the RAS-containing HCV-SGR to compound 31 was determined by measurement of luciferase activity and comparison to wild-type HCV-SGR susceptibility. The replication capacity of the RAS-containing HCV-SGR was assessed by comparing luciferase activities at 4 h and 96 h posttransfection and expressed as a percentage of the wild-type replication capacity.

C/C=C/C[C@@H](C)[C@@H](O)[C@H]1C(=O)N[C@@H](CC)C(=O)N(C)[C@H](C)C(=O)N(CC)[C@@H](C(C)C)C(=O)N[C@@H](C(C)C)C(=O)N(C)[C@@H](CC(C)C)C(=O)N[C@@H](C)C(=O)N[C@H](C)C(=O)N(C)[C@@H](CC(C)C)C(=O)N(C)[C@@H](CC(C)C)C(=O)N(C)[C@@H](C(C)C)C(=O)N1C [ALV, Alisporivir, reference compound]
Fold change, WT: 1.0
